Experiments:
mouse MC1R (mMC1R) = target: T1, mouse MC1R (mMC1R) (Mus musculus, UniProt Q01727); experiment: Cyclic AMP assay in HEK293 cells stably expressing mMC1R; format: cell-based; settings: mMC1R on HEK293; geometric mean of three experiments; read-out: EC50 agonistic activity (cAMP)
T1 construct: expressed in transfected cells; host or cells: HEK293 (Jump-In TI Gateway targeted integration, SV40 promoter)

Protein sequences, listed by entry. Tags and fused reporters are not part of them. Lines headed by an entry give the natural chain unless they say otherwise; changes in a name come on top.
UniProt Q01727: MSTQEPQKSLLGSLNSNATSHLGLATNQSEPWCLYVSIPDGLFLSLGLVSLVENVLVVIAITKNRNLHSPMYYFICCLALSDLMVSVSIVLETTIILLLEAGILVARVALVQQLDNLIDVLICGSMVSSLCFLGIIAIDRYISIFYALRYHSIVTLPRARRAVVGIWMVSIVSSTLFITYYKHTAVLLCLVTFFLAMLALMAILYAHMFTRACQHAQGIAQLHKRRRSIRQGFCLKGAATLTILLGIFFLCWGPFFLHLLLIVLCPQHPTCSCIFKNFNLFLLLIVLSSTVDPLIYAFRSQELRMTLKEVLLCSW

[1] = tested on: B16F1 mouse melanoma cell line; experiment: Melanin production in B16F1 cell line; format: cell-based; settings: B16F1 cells, 3 days
Procedure: Dulbecco's modified Eagle medium without phenol red (Life Technologies), containing 10% foetal bovine serum (Gibco) and 100 U/ml of penicillin‐streptomycin (Gibco), was used as the assay medium. Cells (1.5 × 10^4) were seeded into a 96‐well culture plate. Serially diluted test substances were added to the plate and incubated at 37°C in a humidified 5% CO2 incubator for 3 days. The melanin concentration in the supernatant was determined from the optical density (405 nm) measured by VersaMax^TM microplate reader (Molecular Devises) using a standard curve of eumelanin (Sigma‐Aldrich, M8631).

[2] = tested on: 5 human melanoma cell lines; settings: 5 human melanoma cell lines in vitro; data not shown

For COC[C@H]1CN(C(=O)[C@]2(F)CN(C3CCCC3)C[C@H]2c2ccc(OC)cc2)C[C@@H]1c1ccc(C(F)(F)F)cc1N1CCC(C(=O)O)CC1 [MT‐7117, dersimelagon], the EC50 (mouse MC1R (mMC1R)) was 1.14 nM, the “Concentrations that significantly increased eumelanin production” value [1] was ≥ 3 pmol/L and the “Effect on cell proliferation” value [2] was “no effect”.

Source: PMC9060023 (Skin Health and Disease, 2021)
